Measurements from patent US20160024487A1, “THROMBIN SENSITIVE COAGULATION FACTOR X MOLECULES” (NOVO NORDISK A/S, priority 2013, published 2016).
Marks after values point to notes of the source that are not given here.

Assay: Pharmacokinetic study of pdFX and 40 kDa HEP-[N]-pdFX in FVIII-KO mice (FX ELISA, NCA)
Format: in vivo
Settings: IV 1 mg/kg

pdFX: human plasma derived Factor X purchased from Molecular Innovations
AUC: 443* hr*nmol/L | Cl: 0.628 mL/min/kg | Cmax: 99 nM | Vz: 0.205 L/kg

40 kDa HEP-[N]-pdFX: human pdFX glycoHEPylated on the N-glycans with 40 kDa heparosan
AUC: 2257 nmol·h/L | Cl: 0.123 mL/min/kg | Cmax: 148 nM | Vz: 0.209 L/kg
